Experimental findings from ChEMBL document CHEMBL6074671, “Discovery of Pyridine-2-Carboxamides Derivatives as Potent and Selective HPK1 Inhibitors for the Treatment of Cancer” (J Med Chem, 2024) are described below.

Sequences of proteins named here, by UniProt entry; tags and fusion partners are left off.
UniProt P70218, whole entry: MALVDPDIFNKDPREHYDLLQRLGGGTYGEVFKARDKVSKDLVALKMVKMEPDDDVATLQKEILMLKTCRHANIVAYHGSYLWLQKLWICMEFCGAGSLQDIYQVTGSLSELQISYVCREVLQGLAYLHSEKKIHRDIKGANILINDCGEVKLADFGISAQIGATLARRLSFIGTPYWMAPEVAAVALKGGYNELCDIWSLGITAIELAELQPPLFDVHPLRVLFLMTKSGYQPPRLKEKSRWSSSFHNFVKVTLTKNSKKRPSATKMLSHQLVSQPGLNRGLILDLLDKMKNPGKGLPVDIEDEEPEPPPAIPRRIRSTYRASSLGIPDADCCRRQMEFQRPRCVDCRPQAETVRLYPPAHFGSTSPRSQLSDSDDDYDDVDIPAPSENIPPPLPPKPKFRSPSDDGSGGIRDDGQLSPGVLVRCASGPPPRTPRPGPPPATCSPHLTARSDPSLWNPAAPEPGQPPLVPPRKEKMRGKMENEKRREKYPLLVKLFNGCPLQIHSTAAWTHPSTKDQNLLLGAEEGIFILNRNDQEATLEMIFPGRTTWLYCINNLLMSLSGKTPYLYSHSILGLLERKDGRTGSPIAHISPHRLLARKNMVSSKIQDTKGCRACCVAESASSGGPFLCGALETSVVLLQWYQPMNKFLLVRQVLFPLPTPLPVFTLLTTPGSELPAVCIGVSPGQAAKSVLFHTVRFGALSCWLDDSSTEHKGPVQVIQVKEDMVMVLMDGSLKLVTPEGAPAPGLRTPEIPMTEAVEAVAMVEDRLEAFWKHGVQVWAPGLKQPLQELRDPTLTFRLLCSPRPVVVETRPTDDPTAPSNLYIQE

For the assay, the target named is Mitogen-activated protein kinase kinase kinase kinase 1 (Mus musculus) (UniProt P70218). The following applies: Balb/c, dose 10-30 mg/kg, route po, time 6.0 hrs.

As usually defined, the inhibition is the relative decrease from the control value, in per cent. Low values mean a response near the control, high ones a response far below the control.

`COc1cc(Nc2ccc3c(n2)CN(C)C32CCN(C3COC3)CC2)c(C(N)=O)nc1-c1cccc2c1ncn2C` gave an inhibition of over 50%.
